Test results from article PMC7988493, “The transmembrane peptide DWORF activates SERCA2a via dual mechanisms” (The Journal of Biological Chemistry, 2021).

The chains behind the UniProt entries cited, without tags or fusion partners. Where a name states a change or a piece, a line headed by the entry shows the natural chain unless it says otherwise. A line that says so, or that is headed by a name, gives the form on record, which may keep a tag or linker.
UniProt P16615, other isoform, or with tags, fused parts or gaps: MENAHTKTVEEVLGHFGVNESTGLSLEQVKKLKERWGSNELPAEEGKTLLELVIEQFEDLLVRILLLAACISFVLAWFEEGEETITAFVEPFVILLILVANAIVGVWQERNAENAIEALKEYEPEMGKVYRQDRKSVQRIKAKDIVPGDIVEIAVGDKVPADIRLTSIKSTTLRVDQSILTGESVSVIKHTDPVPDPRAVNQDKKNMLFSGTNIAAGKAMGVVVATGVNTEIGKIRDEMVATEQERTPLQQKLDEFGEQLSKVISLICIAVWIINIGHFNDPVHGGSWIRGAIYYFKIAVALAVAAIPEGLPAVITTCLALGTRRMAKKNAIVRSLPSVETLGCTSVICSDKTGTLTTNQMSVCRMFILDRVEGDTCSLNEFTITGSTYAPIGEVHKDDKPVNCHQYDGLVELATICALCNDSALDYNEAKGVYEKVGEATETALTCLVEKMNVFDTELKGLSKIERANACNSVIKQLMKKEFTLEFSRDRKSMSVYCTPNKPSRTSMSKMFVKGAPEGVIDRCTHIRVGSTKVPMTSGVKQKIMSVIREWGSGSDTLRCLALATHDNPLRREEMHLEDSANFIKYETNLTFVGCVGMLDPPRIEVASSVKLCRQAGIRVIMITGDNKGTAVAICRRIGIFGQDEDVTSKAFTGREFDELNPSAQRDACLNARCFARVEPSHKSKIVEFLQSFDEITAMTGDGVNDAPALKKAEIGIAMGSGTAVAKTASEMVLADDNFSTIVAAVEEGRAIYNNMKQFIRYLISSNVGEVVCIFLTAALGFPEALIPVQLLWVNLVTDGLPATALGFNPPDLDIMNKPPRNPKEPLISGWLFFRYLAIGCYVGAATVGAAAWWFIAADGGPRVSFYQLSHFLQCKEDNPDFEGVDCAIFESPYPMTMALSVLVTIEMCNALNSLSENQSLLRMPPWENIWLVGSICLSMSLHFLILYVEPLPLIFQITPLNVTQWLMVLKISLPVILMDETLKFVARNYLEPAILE
UniProt P0DN84: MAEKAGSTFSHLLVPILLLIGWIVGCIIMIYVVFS

Molecular target: T1, GFP-SERCA2a (EGFP fused to the N terminus of human SERCA2a) (human, UniProt P16615-2)
T1 construct: sarcoplasmic/endoplasmic reticulum calcium ATPase 2, isoform SERCA2a, human; A 5-residue linker stands between EGFP and SERCA2a; also called Ca-ATPase isoform 2a; FRET donor; source: HEK293, stably expressed (pcDNA3.1), in live cells; cell homogenates for the Ca-ATPase assay; not shown: EGFP, N-terminal, kept
Assay: FRET or BRET; fluorescence lifetime (TCSPC) FRET in live HEK293 cells stably expressing GFP-SERCA2a (donor), RFP-labeled DWORF construct (acceptor) transiently transfected at varied DNA amounts; cells at 1 million per ml in PBS; E and mole fraction XDA from multiexponential analysis
Conditions: partners not purified

- fold decrease of the fraction of SERCA2a containing bound DWORF (XDA) against WT DWORF: 4 fold
Binder: MAEKAGSTFSHLLVAILLLIGAIVGCIIMIYVVFS (peptide, UniProt P0DN84 1-35, looked up) [RFP–DWORF P15A/W22A double mutant]
